Source: PubChem (several laboratories)
Shown are actives, neighbours in structure and some others; about 2.3% of the full set was active somewhere.
ARFGAP1 inhibitor: inhibitors of rat ARFGAP1 GAP activity, primary screen, biochemical, fluorescence polarization, GDP tracer; ADP-ribosylation factor GTPase-activating protein 1 (Rattus norvegicus), Q62848; Arfgap1-stimulated ARF1 GTP hydrolysis, GDP FP detection; inhibition, % at 16.5 µM; 0.26% of 360,000 active;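 active = inhibition above a per-plate limit, mean inhibition of low control wells plus 3 SD, cut at about 25% in these data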;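 also: 0% = DMSO wells with enzyme and 100% = wells lacking Arfgap1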
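Repeats: one replicate per compound; assay system: rat Arfgap1 catalytic domain, aa 1-136; times: enzyme reaction 120 min at 25 °C after 20 min preincubation; detection: FP of antibody-bound GDP Alexa 633 tracer, ex 620/em 688 nm; benchmarks: high control wells lacking Arfgap1, low control full reaction with DMSO; reagent: human ARF1(Δ1-17)-GTP substrate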
MC4R antag cAMP: MC4R antagonists of cAMP signaling, primary screen, cell-based, TR-FRET, antagonist arm of biased-ligand search. 0.48% of 360,000 active. MC4R-expressing cells, MTII-stimulated cAMP, LANCE TR-FRET. inhibition, % at 6.5 µM;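 active = inhibition above its plate's cutoff, the mean of tested wells on that plate plus 3 SD, cut at about 29% in these data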;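 also: 0% = Melanotan II alone and 100% = Melanotan II plus saturating MCL0020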
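Material – human MC4R-expressing U2OS cells · Repeats – no replicates · Detection – TR-FRET with Eu-cAMP and labeled anti-cAMP, 671 nm · Times – compound 30 min, challenge 1 h, detection 1 h · Compound – single nominal compound dose of 6.5 µM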
MC4R barr agon: MC4R agonists recruiting beta-arrestin, primary screen, cell-based, luminescence, agonist arm of biased-ligand search. Melanocortin receptor 4 (Homo sapiens), P32245. U2OS MC4R beta-arrestin complementation; percent of melanotan II response, DMSO zero. activation, % at 8.9 µM. 0.98% of 360,000 active;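 active = activation above a per-plate cutoff, the mean activation of sample wells on that plate plus 3 SD, cut at about 8% in these data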
ASAP1 inh: inhibitors of human ASAP1 ArfGAP activity, primary screen, biochemical, fluorescence polarization; Arf-GAP with SH3 domain, ANK repeat and PH domain-containing protein 1 (Homo sapiens), …; ASAP1-stimulated ARF1 GTP hydrolysis, GDP FP detection; inhibition, % at 16.5 µM; 0.19% of 360,000 active; in the data active = inhibition above about 25%;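 also: 0% = vehicle with enzyme and substrate and 100% = no enzyme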
CendR NRP1 mod: modulators of CendR peptide binding to NRP-1, primary screen, biochemical, fluorescence polarization, uHTS | Neuropilin-1 (Homo sapiens), O14786 | FAM-RPARPAR peptide binding to NRP-1 | inhibition, % at 25 µM | 0.85% of 360,000 active | AID 602438, 2012;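 active = inhibition or corrected inhibition above about 18%, plus a signal ratio from 0.5 to 1.5, limit read from the data, passing the limit was not always enough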
UUG fidelity: yeast start codon fidelity modulation | S. cerevisiae UUG-firefly luciferase reporter, luminescence/redox ratio | activity score, % at 18.7 µM | 350,000 tested, 0.13% active;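 active = replicate mean at a twofold rise or more, about +100% in these data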;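 also: firefly luciferase made from a UUG start codon reports start codon fidelity; reporter light over untreated wells divided by growth signal over untreated wells; some hits fall short of that in this replicate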
MC4R barr ag: MC4R beta-arrestin agonists, retest, confirmation, cell-based, luminescence, U2OS; activation, % at 8.9 µM; 31% of 2,400 active; U2OS MC4R beta-arrestin recruitment; scaled DMSO 0%, Melanotan II 100%; AID 602192, 2012; shares compounds with MC4R barr agon;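 active = mean activation across replicates above the hit cutoff set in the earlier primary screen, cut at about 8% in these data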
MOR-DOR barr ag: agonists of MOR-DOR heterodimerization, counter-screen for MC4R biased agonist project, cell-based, luminescence; U2OS PathHunter beta-arrestin, beta-gal luminescence; percent of deltorphin B response, DMSO zero; shares compounds with MC4R barr agon; 5.8% of 2,400 active; activation, % at 9.2 µM;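 active = mean activation across replicates exceeds the hit threshold derived in the earlier primary screen, cut at about 18% in these data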;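 also: 100% = deltorphin B at 0.9 µM final and 0% = DMSO alone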
The depositor's hits bear a star.

By UniProt entry, the sequences of proteins in these tests, tags left out.
ADP-ribosylation factor GTPase-activating protein 1 (Rattus norvegicus), Q62848, UniProt Q62848, whole entry, looked up: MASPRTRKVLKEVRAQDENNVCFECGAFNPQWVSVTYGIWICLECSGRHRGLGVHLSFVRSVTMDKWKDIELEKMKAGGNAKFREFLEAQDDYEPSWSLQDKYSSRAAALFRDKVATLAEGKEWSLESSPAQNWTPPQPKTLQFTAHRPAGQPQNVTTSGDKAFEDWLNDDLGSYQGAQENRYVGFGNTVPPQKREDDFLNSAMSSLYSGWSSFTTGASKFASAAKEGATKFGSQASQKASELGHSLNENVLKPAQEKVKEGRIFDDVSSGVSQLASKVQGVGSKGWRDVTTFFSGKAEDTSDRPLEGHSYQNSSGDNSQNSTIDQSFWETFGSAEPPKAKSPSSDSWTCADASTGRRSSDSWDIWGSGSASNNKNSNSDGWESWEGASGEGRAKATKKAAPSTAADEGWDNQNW
Melanocortin receptor 4 (Homo sapiens), P32245, UniProt P32245, whole entry, looked up: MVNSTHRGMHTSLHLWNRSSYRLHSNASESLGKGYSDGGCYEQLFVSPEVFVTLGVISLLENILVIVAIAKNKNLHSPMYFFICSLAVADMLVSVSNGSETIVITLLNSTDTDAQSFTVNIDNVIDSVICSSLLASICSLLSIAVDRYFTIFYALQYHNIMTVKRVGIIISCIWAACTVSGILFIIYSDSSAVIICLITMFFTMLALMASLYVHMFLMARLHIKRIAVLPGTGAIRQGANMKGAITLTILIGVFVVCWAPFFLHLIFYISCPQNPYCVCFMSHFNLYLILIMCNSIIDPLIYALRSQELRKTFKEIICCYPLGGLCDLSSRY
Neuropilin-1 (Homo sapiens), O14786, UniProt O14786, whole entry, looked up: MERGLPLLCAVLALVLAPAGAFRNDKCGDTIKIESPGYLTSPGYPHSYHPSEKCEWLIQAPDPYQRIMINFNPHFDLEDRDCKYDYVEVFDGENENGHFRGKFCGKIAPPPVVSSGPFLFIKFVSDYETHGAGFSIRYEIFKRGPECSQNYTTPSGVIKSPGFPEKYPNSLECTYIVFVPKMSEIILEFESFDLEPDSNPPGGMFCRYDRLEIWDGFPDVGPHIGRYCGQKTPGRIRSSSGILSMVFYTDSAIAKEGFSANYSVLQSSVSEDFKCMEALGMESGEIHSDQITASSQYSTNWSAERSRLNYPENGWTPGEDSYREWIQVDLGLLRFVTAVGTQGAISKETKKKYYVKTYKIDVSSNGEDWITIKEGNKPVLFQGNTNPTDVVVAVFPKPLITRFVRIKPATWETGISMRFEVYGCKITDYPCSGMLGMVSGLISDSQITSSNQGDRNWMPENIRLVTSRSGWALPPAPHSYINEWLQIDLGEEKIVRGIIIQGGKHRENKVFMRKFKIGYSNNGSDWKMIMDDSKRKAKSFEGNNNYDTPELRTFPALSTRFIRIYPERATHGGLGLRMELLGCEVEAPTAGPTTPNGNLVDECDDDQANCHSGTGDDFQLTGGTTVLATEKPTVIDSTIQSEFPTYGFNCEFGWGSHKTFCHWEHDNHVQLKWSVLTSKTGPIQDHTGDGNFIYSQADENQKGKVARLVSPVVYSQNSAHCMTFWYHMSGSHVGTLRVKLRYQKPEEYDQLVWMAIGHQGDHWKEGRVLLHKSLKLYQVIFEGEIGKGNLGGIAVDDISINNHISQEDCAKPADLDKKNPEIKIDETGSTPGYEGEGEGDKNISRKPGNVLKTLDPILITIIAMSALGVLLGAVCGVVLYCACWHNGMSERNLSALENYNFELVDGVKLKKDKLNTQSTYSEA

For O=[N+]([O-])c1ccc(N/N=C/c2ccccc2)c(F)c1 the results were ARFGAP1 inhibitor 9, MC4R antag cAMP 22, MC4R barr agon 12*, ASAP1 inh 3, CendR NRP1 mod 2, UUG fidelity -15, MC4R barr ag 1 and MOR-DOR barr ag 7.
For COc1ccc(-c2csc(NC(=O)c3nc(-c4ccccc4)oc3C)n2)cc1 the results were ARFGAP1 inhibitor 11, MC4R antag cAMP -3, MC4R barr agon 12*, ASAP1 inh -3, CendR NRP1 mod -16, UUG fidelity -5, MC4R barr ag 2 and MOR-DOR barr ag 4.
For COc1ccc(-c2csc(NC(=O)c3ccccc3C(=O)O)n2)cc1 the results were ARFGAP1 inhibitor 4, MC4R antag cAMP 3, MC4R barr agon -2, ASAP1 inh -3 and CendR NRP1 mod 0.
Screening C[C@@H]1CCCCO[C@H](CN(C)S(C)(=O)=O)[C@@H](C)CN([C@@H](C)CO)C(=O)c2cc(NC(=O)Nc3ccc(F)cc3)ccc2O1 returned UUG fidelity 12.
`COc1ccc(CC(=O)OCC(=O)N2N=C(c3ccccc3)CC2c2ccc(OC)cc2)cc1` (stereo unspecified) gave ARFGAP1 inhibitor 1, MC4R antag cAMP 7, MC4R barr agon -2, ASAP1 inh 5, CendR NRP1 mod -3 and UUG fidelity -15.
For CCCCC(=O)OCC(=O)N1N=C(c2c[nH]c3ccccc23)C(O)C1c1ccc(OC)cc1 (stereo unspecified) the results were ARFGAP1 inhibitor 12, MC4R antag cAMP 12, MC4R barr agon 15*, ASAP1 inh 17, CendR NRP1 mod 5, MC4R barr ag 8.3* and MOR-DOR barr ag 5.
Screening C[C@H](CO)N1C[C@H](C)[C@H](CN(C)C(=O)Nc2ccc3c(c2)OCO3)Oc2c(NC(=O)c3ccncc3)cccc2C1=O returned UUG fidelity -15.
Nc1c2nc(-c3ccccc3)[nH]c(=O)c2nc(=O)n1-c1ccccc1 was read as ARFGAP1 inhibitor 8, MC4R antag cAMP 13, MC4R barr agon 15*, ASAP1 inh -5, CendR NRP1 mod -15, UUG fidelity -12, MC4R barr ag 6 and MOR-DOR barr ag 7.
Screening O=c1[nH]c(-c2ccc(F)cc2)nc2c1sc(=S)n2-c1ccccc1 returned ARFGAP1 inhibitor -7, MC4R antag cAMP -2, MC4R barr agon -3, ASAP1 inh 12, CendR NRP1 mod -16 and UUG fidelity -22.
CC(=O)N[C@H]1CC[C@@H](CCNC(=O)C2CCC2)O[C@H]1CO was read as UUG fidelity -3.

The closing two entries of the part above open the next one:
Screening O=c1[nH]c(-c2ccc(F)cc2)nc2c1sc(=S)n2-c1ccccc1 returned ARFGAP1 inhibitor -7, MC4R antag cAMP -2, MC4R barr agon -3, ASAP1 inh 12, CendR NRP1 mod -16 and UUG fidelity -22.
CC(=O)N[C@H]1CC[C@@H](CCNC(=O)C2CCC2)O[C@H]1CO was read as UUG fidelity -3.
Screening Cc1ccc(S(=O)(=O)Nc2cccc3c2O[C@@H](CN(C)Cc2ccc(C(=O)O)cc2)[C@H](C)CN([C@H](C)CO)C3=O)cc1 returned UUG fidelity 7.
Screening O=C(Nc1ccc2c(c1)Cc1ccccc1-2)c1cc2ccccc2o1 returned ARFGAP1 inhibitor 2, MC4R antag cAMP 4, MC4R barr agon 13*, ASAP1 inh 5, CendR NRP1 mod -14, MC4R barr ag -1 and MOR-DOR barr ag 3.
Screening COc1cc(NC(=O)c2ccc(C)cc2)ccc1NC(=O)c1cc2ccccc2o1 returned ARFGAP1 inhibitor 3, MC4R antag cAMP -12, MC4R barr agon 1, ASAP1 inh -4, CendR NRP1 mod -8 and UUG fidelity -13.
Screening COc1ccccc1NC(=O)c1oc2ccccc2c1NC(=O)c1ccco1 returned ARFGAP1 inhibitor 0, MC4R antag cAMP 0, MC4R barr agon 1, ASAP1 inh -2, CendR NRP1 mod -20 and UUG fidelity -1.
`COc1cc(NC(=O)c2cccc(F)c2)ccc1NC(=O)c1cc2ccccc2o1` gave ARFGAP1 inhibitor 1, MC4R antag cAMP -5, MC4R barr agon 12*, ASAP1 inh 5, CendR NRP1 mod -5, UUG fidelity -4, MC4R barr ag 5 and MOR-DOR barr ag 9.
For COc1cc(NC(=O)c2oc3ccccc3c2C)ccc1NC(=O)c1ccco1 the results were ARFGAP1 inhibitor 14, MC4R antag cAMP 5, MC4R barr agon 9.7*, ASAP1 inh 0, CendR NRP1 mod -45, UUG fidelity 14, MC4R barr ag 2 and MOR-DOR barr ag 5.
For COc1cc(NC(=O)c2ccc(C)cc2C)ccc1NC(=O)c1cc2ccccc2o1 the results were ARFGAP1 inhibitor -5, MC4R antag cAMP 5, MC4R barr agon 12*, ASAP1 inh 11, CendR NRP1 mod 11, UUG fidelity -16, MC4R barr ag 16* and MOR-DOR barr ag 12.
For CCOc1cc(NC(=O)c2ccco2)c(OCC)cc1NC(=O)c1cc(OC)c(OC)c(OC)c1 the results were ARFGAP1 inhibitor 10, MC4R antag cAMP 0, MC4R barr agon 13*, ASAP1 inh -1, CendR NRP1 mod 7, UUG fidelity -18, MC4R barr ag 4 and MOR-DOR barr ag 53*.
CCC(=O)N1C[C@H](C)[C@H](OC)CN(C)C(=O)c2cc(NC(=O)C3CCOCC3)ccc2OC[C@H]1C was read as UUG fidelity -17.
For O=C(C[C@H]1C[C@H]2c3cc(NC(=O)Nc4ccccc4)ccc3O[C@H]2[C@@H](CO)O1)NC1CCCC1 the results were UUG fidelity 0.
`COc1ccc(CN(C)C(=O)c2cc(S(=O)(=O)Nc3ccccc3F)ccc2C)c(OC)c1` gave ARFGAP1 inhibitor -5, MC4R antag cAMP 11, MC4R barr agon 12*, ASAP1 inh 6, CendR NRP1 mod 2, UUG fidelity 13, MC4R barr ag 1 and MOR-DOR barr ag 2.
